Values of other authors as cited in patent US6509371B1, “Compositions containing Bergamottin for increasing the oral bioavailability of pharmaceutical agents” (Warner-Lambert Company, priority 1997, dated 2003).

Chains of the proteins cited; added tags and fusions are not shown.
UniProt P08684, whole entry: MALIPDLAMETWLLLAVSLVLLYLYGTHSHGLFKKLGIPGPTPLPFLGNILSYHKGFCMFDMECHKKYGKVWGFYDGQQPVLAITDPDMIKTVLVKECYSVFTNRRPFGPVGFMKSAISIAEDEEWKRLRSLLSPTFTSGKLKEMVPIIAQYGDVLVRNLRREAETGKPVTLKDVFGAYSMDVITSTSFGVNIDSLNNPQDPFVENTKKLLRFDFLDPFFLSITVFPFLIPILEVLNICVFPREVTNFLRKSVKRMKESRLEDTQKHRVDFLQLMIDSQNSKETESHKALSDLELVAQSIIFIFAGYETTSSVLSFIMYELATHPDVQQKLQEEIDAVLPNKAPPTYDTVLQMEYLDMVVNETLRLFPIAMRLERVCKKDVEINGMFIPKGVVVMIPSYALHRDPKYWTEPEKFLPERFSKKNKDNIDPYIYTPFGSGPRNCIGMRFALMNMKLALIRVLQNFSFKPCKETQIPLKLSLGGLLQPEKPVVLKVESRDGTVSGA

Assays:
P450 3A4 = P450 3A4 (Homo sapiens, UniProt P08684); details: in vivo; cited from earlier work
[1] = cited from earlier work

Q: With CCC(=O)N(c1ccccc1)C1(COC)CCN(CCn2nnn(CC)c2=O)CC1 as the compound, how does the “Fraction Metabolized” value (P450 3A4) read?
A: >90%

Q: And the “Oral Bioavailability” value [1]?
A: Very Low

Only a part of the results on these compounds is given; other tests are left out.
